Data reported in patent US20030199523A1, “Heterocyclic calcium in channel blockers” (priority 2002, published 2003).

Chains of the proteins cited; added tags and fusions are not shown. Lines headed by an entry give the natural chain unless they say otherwise; changes in a name come on top.
UniProt Q02294, whole entry: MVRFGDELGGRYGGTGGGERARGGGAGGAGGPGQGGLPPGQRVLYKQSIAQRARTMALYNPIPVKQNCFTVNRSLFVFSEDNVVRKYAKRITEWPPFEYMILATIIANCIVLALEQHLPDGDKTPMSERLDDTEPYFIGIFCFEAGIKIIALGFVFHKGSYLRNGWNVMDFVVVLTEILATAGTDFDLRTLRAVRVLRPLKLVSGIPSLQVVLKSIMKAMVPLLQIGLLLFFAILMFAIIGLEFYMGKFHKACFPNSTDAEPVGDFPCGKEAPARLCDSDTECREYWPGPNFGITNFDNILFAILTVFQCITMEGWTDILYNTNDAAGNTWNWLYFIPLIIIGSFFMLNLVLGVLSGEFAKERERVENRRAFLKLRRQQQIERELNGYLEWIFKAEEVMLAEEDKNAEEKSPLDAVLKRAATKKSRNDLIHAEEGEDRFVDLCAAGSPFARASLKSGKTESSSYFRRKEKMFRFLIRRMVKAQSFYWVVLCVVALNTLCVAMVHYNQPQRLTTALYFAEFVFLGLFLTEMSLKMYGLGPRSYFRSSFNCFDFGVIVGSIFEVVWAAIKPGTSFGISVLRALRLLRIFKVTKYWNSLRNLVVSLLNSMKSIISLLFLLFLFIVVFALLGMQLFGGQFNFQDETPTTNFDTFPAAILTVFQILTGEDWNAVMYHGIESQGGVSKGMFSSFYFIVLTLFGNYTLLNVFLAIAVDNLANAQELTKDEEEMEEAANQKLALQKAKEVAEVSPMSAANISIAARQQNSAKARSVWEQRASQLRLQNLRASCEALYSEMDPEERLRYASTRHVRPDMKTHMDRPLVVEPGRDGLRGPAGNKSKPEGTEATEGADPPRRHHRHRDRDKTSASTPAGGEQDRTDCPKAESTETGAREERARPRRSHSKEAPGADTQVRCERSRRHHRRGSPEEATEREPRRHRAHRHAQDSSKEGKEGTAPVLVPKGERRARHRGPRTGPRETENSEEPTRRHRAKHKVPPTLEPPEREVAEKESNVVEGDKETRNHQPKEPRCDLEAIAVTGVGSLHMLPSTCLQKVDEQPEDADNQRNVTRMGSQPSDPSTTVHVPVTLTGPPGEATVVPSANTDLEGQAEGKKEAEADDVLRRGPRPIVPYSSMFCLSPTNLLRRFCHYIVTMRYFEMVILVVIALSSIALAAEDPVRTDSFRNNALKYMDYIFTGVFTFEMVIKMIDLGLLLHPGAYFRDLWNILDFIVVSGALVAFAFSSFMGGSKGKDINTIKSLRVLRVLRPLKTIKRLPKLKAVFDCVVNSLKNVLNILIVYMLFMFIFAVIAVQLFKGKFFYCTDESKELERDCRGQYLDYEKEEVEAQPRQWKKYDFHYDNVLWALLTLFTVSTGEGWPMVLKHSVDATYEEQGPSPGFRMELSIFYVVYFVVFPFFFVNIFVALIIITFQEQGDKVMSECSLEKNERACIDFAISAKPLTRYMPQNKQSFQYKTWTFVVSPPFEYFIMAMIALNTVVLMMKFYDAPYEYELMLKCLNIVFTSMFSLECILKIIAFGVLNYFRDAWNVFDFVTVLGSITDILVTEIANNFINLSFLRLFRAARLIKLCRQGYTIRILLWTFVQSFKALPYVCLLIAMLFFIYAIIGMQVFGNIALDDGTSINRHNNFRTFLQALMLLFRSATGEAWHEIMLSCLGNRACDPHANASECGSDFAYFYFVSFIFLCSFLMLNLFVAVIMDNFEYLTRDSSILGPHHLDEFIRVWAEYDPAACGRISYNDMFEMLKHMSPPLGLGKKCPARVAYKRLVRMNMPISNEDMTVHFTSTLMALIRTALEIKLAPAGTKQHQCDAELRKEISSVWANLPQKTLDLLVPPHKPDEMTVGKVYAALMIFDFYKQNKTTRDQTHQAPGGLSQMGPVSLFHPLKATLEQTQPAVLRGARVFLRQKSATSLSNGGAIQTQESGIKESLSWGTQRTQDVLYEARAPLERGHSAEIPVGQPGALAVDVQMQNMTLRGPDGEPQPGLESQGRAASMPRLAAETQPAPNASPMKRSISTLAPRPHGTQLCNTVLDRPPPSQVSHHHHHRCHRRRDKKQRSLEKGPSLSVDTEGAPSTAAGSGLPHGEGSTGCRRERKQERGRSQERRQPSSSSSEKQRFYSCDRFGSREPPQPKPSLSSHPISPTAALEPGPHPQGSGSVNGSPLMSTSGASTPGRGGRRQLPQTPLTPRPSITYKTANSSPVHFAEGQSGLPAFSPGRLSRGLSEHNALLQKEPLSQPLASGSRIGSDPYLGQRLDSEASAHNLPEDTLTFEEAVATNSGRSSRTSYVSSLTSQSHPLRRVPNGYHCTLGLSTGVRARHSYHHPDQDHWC
UniProt O00555, whole entry: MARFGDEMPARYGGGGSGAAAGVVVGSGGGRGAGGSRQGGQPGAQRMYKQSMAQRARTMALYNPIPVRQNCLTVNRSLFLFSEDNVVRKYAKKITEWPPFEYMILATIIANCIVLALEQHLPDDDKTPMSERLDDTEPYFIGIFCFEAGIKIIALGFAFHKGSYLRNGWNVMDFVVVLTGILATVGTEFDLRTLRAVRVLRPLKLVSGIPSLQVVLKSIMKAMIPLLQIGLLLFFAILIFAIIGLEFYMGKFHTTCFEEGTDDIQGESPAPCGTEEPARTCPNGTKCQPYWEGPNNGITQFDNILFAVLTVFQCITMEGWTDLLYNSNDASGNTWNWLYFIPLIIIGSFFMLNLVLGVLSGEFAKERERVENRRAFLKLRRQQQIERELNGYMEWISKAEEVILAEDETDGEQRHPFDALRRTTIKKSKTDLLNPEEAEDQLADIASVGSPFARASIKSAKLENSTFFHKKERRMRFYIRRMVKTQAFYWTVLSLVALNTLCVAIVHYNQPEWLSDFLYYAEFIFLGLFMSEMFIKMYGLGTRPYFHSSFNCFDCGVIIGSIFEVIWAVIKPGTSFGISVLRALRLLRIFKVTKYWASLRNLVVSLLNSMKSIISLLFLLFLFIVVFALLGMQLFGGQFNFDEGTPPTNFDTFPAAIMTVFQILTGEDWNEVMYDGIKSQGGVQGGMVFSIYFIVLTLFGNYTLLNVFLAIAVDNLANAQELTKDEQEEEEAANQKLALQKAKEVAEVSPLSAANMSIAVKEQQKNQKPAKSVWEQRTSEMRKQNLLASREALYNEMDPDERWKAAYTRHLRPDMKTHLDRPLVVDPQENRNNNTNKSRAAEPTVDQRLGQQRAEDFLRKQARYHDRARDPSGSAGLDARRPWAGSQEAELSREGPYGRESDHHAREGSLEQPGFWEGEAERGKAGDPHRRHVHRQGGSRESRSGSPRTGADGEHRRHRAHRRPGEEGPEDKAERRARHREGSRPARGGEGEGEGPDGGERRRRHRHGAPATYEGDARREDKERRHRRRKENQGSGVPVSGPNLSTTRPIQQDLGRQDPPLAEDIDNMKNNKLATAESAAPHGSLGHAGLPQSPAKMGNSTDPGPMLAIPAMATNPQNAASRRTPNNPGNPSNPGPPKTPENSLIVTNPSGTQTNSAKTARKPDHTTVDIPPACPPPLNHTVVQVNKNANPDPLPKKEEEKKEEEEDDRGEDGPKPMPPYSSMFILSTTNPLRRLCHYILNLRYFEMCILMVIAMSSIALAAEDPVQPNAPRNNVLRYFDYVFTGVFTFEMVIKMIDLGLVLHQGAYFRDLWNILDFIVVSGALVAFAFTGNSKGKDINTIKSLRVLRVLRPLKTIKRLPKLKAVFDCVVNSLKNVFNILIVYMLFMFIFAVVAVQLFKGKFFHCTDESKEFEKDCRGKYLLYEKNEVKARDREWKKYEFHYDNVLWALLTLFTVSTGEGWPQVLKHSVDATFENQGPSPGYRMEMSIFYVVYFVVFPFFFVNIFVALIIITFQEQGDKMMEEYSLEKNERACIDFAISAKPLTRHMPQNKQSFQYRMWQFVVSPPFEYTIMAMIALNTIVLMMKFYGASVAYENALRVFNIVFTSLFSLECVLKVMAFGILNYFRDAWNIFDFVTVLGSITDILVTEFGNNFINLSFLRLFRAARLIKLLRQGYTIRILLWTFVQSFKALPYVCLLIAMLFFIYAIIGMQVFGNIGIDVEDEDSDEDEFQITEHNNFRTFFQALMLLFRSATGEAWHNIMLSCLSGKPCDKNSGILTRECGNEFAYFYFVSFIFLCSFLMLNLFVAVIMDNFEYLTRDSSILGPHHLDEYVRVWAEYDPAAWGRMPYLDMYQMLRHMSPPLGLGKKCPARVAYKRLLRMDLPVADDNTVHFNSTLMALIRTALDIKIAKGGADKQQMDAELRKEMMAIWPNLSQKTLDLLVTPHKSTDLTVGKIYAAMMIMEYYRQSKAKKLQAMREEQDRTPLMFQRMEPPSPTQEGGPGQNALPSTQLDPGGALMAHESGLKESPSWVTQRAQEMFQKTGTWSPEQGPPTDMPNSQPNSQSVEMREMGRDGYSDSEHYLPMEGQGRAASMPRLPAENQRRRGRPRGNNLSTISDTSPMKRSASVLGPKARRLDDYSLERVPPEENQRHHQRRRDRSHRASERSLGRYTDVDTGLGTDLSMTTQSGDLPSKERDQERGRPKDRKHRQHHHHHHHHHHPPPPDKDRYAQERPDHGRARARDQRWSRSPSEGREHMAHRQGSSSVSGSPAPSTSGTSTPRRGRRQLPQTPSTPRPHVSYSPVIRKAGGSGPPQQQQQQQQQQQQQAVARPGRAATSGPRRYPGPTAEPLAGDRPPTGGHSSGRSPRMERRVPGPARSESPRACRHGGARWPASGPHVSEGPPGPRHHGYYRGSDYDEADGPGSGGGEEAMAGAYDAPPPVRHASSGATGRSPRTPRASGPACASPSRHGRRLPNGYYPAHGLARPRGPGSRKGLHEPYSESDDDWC

Columns and labels:
[1] = target: rat brain N-type calcium channel (α1B+α2δ+β1b) (Rattus norvegicus, UniProt Q02294); assay: Whole cell patch clamp block of N-type calcium channels expressed in HEK 293 cells; conditions: read-out: estimated IC50 for the N-type channel at peak current amplitude; peak current amplitude
Procedure: (§1) Antagonist activity was measured using whole cell patch recordings on human embryonic kidney cells either stably or transiently expressing rat α1B+α2b+β1b channels (N-type channels) with 5 mM barium as a charge carrier.
(§2) For transient expression, host cells, such as human embryonic kidney cells, HEK 293 (ATCC# CRL 1573) were grown in standard DMEM medium supplemented with 2 mM glutamine and 10% fetal bovine serum. HEK 293 cells were transfected by a standard calcium-phosphate-DNA coprecipitation method using the rat α1B+β1b+α2δ N-type calcium channel subunits in a vertebrate expression vector (for example, see Current Protocols in Molecular Biology).
(§3) After an incubation period of from 24 to 72 hrs the culture medium was removed and replaced with external recording solution (see below). Whole cell patch clamp experiments were performed using an Axopatch 200B amplifier (Axon Instruments, Burlingame, Calif.) linked to an IBM compatible personal computer equipped with pCLAMP software. Borosilicate glass patch pipettes (Sutter Instrument Co., Novato, Calif.) were polished (Microforge, Narishige, Japan) to a resistance of about 4 MΩ when filled with cesium methanesulfonate internal solution (composition in MM: 109 CsCH3SO4, 4 MgCl2, 9 EGTA, 9 HEPES, pH 7.2). Cells were bathed in 5 mM Ba^++ (in mM: 5 BaCl2, 1 MgCl2, 10 HEPES, 40 tetraethylammonium chloride, 10 glucose, 87.5 CsCl pH 7.2). Current data shown were elicited by a train of 100 ms test pulses at 0.066 Hz from −100 mV and/or −80 mV to various potentials (min. −20 mV, max. +30 mV). Drugs were perfused directly into the vicinity of the cells using a microperfusion system.
(§4) Normalized dose-response curves were fit (Sigmaplot 4.0, SPSS Inc., Chicago, Ill.) by the Hill equation to determine IC50 values. Steady-state inactivation curves were plotted as the normalized test pulse amplitude following 5 s inactivating prepulses at +10 mV increments. Inactivation curves were fit (Sigmaplot 4.0) with the Boltzman equation, Ipeak (normalized)=1/(1+exp((V−Vh)z/25.6)), where V and Vh are the conditioning and half inactivation potentials, respectively, and z is the slope factor.
(§5) The method of Example 1 was followed with slight modifications as will be apparent from the description below.
(§6) N-type calcium channel blocking activity was assayed in human embryonic kidney cells, HEK 293, stably transfected with the rat brain N-type calcium channel subunits (α1B+α2δ+β1b cDNA subunits). Alternatively, N-type calcium channels (α1B+α2δ+β1b cDNA subunits), L-type channels (α1C+α2δ+β1b cDNA subunits) and P/Q-type channels (α1A+α2δ+β1b cDNA subunits) were transiently expressed in HEK 293 cells. Briefly, cells were cultured in Dulbecco's modified eagle medium (DMEM) supplemented with 10% fetal bovine serum, 200 U/ml penicillin and 0.2 mg/ml streptomycin at 37° C. with 5% CO2. At 85% confluency cells were split with 0.25% trypsin/1 mM EDTA and plated at 10% confluency on glass coverslips. At 12 hours the medium was replaced and the cells transiently transfected using a standard calcium phosphate protocol and the appropriate calcium channel cDNAs. Fresh DMEM was supplied and the cells transferred to 28° C./ 5% CO2. Cells were incubated for 1 to 2 days to whole cell recording.
(§7) Whole cell patch clamp experiments were performed using an Axopatch 200B amplifier (Axon Instruments, Burlingame, Calif.) linked to a personal computer equipped with pCLAMP software. The external and internal recording solutions contained, respectively, 5 mM BaCl2, 1 mM MgCl2, 10 mM HEPES, 40 mM TEACl, 10 mM glucose, 87.5 mM CsCl (pH 7.2) and 108 mM CsMS, 4 mM MgCl2, 9 mM EGTA, 9 mM HEPES (pH 7.2). Currents were typically elicited from a holding potential of −80 mV to +10 mV using Clampex software (Axon Instruments). Typically, currents were first elicited with low frequency stimulation (0.03 Hz) and allowed to stabilize prior to application of the compounds. […]

[2] = test system: rat brain N-type calcium channel (α1B+α2δ+β1b); assay: as above
Procedure: as §1, §2, §3, §4, §5, §6, §7

[3] = target: P/Q-type channels (α1A+α2δ+β1b) (Homo sapiens, UniProt O00555); assay: Whole cell patch clamp block of P/Q-type calcium channels transiently expressed in HEK 293 cells
Procedure: as §5, §6
(§8) Whole cell patch clamp experiments were performed using an Axopatch 200B amplifier (Axon Instruments, Burlingame, Calif.) linked to a personal computer equipped with pCLAMP software. […] Data were analyzed using Clampfit (Axon Instruments) and SigmaPlot 4.0 (Jandel Scientific).

[4] = target: L-type channels (α1C+α2δ+β1b) (Homo sapiens, UniProt Q13936); assay: Whole cell patch clamp block of L-type calcium channels transiently expressed in HEK 293 cells
Procedure: as §5, §6, §8

[5] = from IC50 at half-inactivation voltage at steady state
[6] = from IC50 at peak current amplitude

IC50 [1]: 39 nM | IC50 ([3]; read-out: IC50 for the P/Q channel at peak current amplitude, peak current amplitude): 940 nM | IC50 ([3]; read-out: IC50 for the P/Q channel at the half-inactivation voltage at steady state, half-inactivation voltage at steady state): 120 nM | IC50 ([4]; read-out: IC50 for the L-type channel at peak current amplitude, peak current amplitude): 780 nM | IC50 ([4]; read-out: IC50 for the L-type channel at the half-inactivation voltage at steady state, half-inactivation voltage at steady state): 100 nM
SMILES: O=C(COc1ccc(Cl)cc1Cl)Nc1ncc([N+](=O)[O-])s1
selectivity for N-type channels versus L-type and P/Q-type (in words) ([2]; N-type, L-type and P/Q-type channels compared): somewhat selective for N-type channels | N:L ratio [2, 5]: 3.1 | N:P ratio [2, 5]: 3.5 | N:L ratio [2, 6]: 20 | N:P ratio [2, 6]: 24

Where two headings read alike, the source gives them in different places.
